For experiment [1], the target named is hMC4R (Homo sapiens), P32245. Conditions: modification not given.
The target in experiment [2] is hMC4R (Homo sapiens), P32245. Conditions: modification not given. This is another data set of the same source.

Read-outs that look alike come from different tables or passages of the source.

In general, Kd refers to the equilibrium constant for the complex coming apart. SYSMEHFRWGKPV [Eu(III)-DOTA-PEG9-NDP-α-MSH, P01189]: the Kd in experiment [1] is 49 nM.

In experiment [2], SYSMEHFRWGKPV [Eu(III)-DTPA-PEG9-NDP-α-MSH, P01189] gave a dissociation constant Kd of 38 nM.
